This experiment in a line: Selectivity index, ratio of IC50 for sheep COX1 to IC50 for recombinant human COX2.

Molecules are shown by their SMILES. Where only a bound is given, the exact number is not on record here.

With `COC(=O)Cc1c(C)n(Cc2ccc(-c3cn(CCCCCCCC(=O)NO)nn3)cc2)c2ccc(OC)cc12`, the Ratio IC50 was more than 2.
